{"sequences": {"note": "Amino acid sequences for entries named in this document (tags omitted). A change or cut given only in a name is not applied to a line headed by its entry.", "UniProt Q92769, whole entry": "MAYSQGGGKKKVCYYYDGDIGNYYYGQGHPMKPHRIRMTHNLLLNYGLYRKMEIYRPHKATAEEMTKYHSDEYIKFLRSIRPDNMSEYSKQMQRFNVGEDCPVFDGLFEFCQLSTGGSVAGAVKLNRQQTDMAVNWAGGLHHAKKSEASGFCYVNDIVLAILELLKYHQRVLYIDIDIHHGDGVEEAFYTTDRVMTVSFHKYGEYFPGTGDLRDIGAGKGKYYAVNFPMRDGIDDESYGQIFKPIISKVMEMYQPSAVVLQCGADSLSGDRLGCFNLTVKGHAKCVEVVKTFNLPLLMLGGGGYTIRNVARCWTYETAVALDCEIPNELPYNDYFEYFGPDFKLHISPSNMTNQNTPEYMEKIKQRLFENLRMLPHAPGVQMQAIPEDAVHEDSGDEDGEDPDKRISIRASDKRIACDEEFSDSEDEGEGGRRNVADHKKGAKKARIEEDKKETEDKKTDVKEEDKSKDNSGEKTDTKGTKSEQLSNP", "UniProt Q13547, whole entry": "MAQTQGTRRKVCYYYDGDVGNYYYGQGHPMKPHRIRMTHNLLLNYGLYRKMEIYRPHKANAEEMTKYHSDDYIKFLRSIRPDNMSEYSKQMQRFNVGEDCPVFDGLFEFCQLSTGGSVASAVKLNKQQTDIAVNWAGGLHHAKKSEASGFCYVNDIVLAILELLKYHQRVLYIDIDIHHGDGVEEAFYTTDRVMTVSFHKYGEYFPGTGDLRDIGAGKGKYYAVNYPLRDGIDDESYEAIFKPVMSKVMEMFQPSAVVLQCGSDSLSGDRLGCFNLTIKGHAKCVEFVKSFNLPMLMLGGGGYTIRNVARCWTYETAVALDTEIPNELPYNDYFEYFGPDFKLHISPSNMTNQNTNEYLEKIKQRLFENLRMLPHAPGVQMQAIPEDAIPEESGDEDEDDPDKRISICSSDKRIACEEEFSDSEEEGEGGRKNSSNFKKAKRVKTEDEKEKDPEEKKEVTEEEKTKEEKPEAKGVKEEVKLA", "UniProt P56524": "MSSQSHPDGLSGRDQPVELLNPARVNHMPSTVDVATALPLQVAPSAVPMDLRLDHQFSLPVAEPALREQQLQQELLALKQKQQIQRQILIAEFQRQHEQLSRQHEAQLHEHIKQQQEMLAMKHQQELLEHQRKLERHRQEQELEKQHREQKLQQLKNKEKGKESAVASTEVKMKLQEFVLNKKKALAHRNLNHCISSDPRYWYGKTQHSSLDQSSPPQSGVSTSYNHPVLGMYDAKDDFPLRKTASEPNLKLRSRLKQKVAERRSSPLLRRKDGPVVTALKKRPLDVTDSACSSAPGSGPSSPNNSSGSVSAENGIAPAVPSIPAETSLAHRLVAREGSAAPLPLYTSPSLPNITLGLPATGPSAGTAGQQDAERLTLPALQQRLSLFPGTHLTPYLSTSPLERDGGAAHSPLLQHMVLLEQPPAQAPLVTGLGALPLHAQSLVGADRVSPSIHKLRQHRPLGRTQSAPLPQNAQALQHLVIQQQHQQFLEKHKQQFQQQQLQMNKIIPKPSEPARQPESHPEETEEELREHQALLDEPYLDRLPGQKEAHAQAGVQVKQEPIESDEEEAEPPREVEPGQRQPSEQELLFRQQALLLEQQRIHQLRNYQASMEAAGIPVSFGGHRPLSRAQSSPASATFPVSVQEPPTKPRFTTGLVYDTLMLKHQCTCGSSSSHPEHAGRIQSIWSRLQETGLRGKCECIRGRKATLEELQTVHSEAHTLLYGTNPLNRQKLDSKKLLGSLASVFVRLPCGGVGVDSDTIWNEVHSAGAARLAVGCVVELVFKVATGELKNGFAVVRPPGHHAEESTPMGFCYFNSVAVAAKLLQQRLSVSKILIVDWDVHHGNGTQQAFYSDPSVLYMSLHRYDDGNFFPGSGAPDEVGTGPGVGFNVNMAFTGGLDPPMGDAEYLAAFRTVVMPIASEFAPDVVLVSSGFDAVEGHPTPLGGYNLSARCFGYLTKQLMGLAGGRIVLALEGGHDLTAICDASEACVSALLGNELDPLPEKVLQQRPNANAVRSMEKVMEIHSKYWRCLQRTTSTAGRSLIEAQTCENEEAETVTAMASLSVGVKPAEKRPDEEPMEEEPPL", "UniProt Q9UKV0": "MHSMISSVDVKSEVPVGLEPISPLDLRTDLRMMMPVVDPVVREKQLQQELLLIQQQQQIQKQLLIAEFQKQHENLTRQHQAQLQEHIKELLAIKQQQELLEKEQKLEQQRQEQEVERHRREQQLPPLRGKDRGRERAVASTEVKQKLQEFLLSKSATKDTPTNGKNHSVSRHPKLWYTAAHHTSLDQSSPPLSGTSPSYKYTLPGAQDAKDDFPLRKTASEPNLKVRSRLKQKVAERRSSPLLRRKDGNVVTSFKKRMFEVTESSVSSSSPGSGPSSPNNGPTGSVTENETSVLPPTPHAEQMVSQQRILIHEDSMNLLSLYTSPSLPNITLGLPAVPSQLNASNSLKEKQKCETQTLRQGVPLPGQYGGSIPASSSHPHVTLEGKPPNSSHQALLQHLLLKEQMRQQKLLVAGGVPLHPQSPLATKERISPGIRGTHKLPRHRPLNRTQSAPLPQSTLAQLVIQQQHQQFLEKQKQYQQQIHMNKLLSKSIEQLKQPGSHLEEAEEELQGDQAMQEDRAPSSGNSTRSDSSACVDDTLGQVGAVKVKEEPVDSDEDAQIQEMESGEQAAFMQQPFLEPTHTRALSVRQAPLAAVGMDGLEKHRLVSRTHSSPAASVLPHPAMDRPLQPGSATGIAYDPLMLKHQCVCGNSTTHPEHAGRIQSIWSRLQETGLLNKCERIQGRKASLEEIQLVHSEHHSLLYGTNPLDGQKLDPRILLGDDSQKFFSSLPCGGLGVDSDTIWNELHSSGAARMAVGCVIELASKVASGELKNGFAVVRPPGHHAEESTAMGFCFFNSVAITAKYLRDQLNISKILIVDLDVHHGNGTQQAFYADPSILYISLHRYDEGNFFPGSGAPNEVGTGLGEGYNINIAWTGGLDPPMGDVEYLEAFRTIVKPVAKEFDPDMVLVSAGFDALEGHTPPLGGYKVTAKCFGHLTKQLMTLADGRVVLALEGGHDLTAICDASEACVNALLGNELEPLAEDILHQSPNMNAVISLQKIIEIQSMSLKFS", "UniProt Q9UQL6": "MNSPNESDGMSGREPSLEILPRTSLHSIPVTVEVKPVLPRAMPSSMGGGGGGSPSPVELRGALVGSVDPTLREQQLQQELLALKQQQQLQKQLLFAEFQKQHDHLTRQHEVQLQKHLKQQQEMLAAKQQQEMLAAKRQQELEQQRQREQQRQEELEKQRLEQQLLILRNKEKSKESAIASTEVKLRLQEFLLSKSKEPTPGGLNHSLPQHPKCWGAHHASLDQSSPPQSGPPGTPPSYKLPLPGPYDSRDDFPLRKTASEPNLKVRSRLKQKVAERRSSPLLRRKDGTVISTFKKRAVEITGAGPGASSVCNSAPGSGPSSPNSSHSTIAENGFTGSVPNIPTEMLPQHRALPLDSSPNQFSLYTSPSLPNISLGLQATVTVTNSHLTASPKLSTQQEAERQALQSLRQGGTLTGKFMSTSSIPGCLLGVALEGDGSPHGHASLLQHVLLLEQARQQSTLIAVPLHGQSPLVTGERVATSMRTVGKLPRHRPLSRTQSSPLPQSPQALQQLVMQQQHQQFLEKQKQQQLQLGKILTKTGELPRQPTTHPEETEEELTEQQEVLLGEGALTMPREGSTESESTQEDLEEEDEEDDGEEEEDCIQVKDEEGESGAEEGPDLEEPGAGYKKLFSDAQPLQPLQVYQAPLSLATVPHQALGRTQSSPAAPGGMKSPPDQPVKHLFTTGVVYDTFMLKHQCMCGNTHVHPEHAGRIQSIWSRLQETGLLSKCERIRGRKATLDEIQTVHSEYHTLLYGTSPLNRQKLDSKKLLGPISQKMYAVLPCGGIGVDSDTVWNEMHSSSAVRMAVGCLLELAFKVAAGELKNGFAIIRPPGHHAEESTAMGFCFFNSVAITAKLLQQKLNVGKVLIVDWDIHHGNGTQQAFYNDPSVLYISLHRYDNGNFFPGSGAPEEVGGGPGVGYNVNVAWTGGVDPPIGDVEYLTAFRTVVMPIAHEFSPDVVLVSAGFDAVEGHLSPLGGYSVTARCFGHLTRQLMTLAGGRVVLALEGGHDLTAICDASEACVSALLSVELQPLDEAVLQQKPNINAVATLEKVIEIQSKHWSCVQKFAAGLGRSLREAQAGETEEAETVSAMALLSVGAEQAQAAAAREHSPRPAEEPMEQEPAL"}, "source": "paper PMC3944532", "about": "“Mode of Action of Diterpene and Characterization of Related Metabolites from the Soft Coral, Xenia elongata” (Marine Drugs, 2014)", "key": {"HDAC2": {"target": "HDAC2 (Homo sapiens, UniProt Q92769)", "assay": "HDAC inhibition assay, class I, fluorogenic peptide RHKK(Ac)AMC", "type": "biochemical"}, "HDAC1": {"target": "HDAC1 (Homo sapiens, UniProt Q13547)", "assay": "HDAC inhibition assay, class I, fluorogenic peptide RHKK(Ac)AMC", "type": "biochemical"}, "HDAC8": {"target": "T1, HDAC8 (Homo sapiens, UniProt Q9BY41)", "T1 sequence (Q9BY41 1-377)": "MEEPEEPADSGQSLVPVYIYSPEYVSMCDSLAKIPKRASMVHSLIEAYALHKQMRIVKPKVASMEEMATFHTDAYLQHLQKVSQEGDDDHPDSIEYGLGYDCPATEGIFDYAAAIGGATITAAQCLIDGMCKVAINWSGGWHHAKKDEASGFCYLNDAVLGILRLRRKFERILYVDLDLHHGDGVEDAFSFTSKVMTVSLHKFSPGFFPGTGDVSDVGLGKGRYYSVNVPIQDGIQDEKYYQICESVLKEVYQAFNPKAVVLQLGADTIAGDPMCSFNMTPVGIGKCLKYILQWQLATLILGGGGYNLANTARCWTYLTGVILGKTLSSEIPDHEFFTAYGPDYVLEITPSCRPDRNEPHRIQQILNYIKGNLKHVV", "assay": "HDAC inhibition assay, class I, fluorogenic peptide RHK(Ac)K(Ac)AMC", "type": "biochemical"}, "HDAC4": {"target": "HDAC4 (Homo sapiens, UniProt P56524)", "assay": "HDAC inhibition assay, class II A, fluorogenic HDAC Class2a substrate"}, "HDAC9": {"target": "HDAC9 (Homo sapiens, UniProt Q9UKV0)", "assay": "HDAC inhibition assay, class II A, fluorogenic HDAC Class2a substrate"}, "HDAC5": {"target": "HDAC5 (Homo sapiens, UniProt Q9UQL6)", "assay": "HDAC inhibition assay, class II A, fluorogenic HDAC Class2a substrate"}}, "data": [{"compound": "CC(/C=C/C(=O)NO)=C\\[C@@H](C)C(=O)c1ccc(N(C)C)cc1", "note": "[Trichostatin A]", "values": [{"measurement": "%Activity", "setting": "HDAC2; 1.00E-05 M", "value": "−3.68", "unit": "%"}, {"measurement": "%Activity", "setting": "HDAC2; 1.11E-06 M", "value": 0.92, "unit": "%"}, {"measurement": "%Activity", "setting": "HDAC2; 1.23E-07 M", "value": 27.55, "unit": "%"}, {"measurement": "%Activity", "setting": "HDAC2; 1.37E-08 M", "value": 70.86, "unit": "%"}, {"measurement": "%Activity", "setting": "HDAC2; 1.52E-09 M", "value": 94.80, "unit": "%"}, {"measurement": "%Activity", "setting": "HDAC2; 3.33E-06 M", "value": "−2.06", "unit": "%"}, {"measurement": "%Activity", "setting": "HDAC2; 3.70E-07 M", "value": 7.43, "unit": "%"}, {"measurement": "%Activity", "setting": "HDAC2; 4.12E-08 M", "value": 41.34, "unit": "%"}, {"measurement": "%Activity", "setting": "HDAC2; 4.57E-09 M", "value": 78.05, "unit": "%"}, {"measurement": "%Activity", "setting": "HDAC2; 5.08E-10 M", "value": 84.26, "unit": "%"}, {"measurement": "HILLSLOPE", "setting": "HDAC2; curve fit", "value": -1.029}, {"measurement": "%Activity", "setting": "HDAC1; 1.00E-05 M", "value": "−1.79", "unit": "%"}, {"measurement": "%Activity", "setting": "HDAC1; 1.11E-06 M", "value": 9.76, "unit": "%"}, {"measurement": "%Activity", "setting": "HDAC1; 1.23E-07 M", "value": 13.39, "unit": "%"}, {"measurement": "%Activity", "setting": "HDAC1; 1.37E-08 M", "value": 57.30, "unit": "%"}, {"measurement": "%Activity", "setting": "HDAC1; 1.52E-09 M", "value": 89.46, "unit": "%"}, {"measurement": "%Activity", "setting": "HDAC1; 3.33E-06 M", "value": "−0.77", "unit": "%"}, {"measurement": "%Activity", "setting": "HDAC1; 3.70E-07 M", "value": 4.96, "unit": "%"}, {"measurement": "%Activity", "setting": "HDAC1; 4.12E-08 M", "value": 33.43, "unit": "%"}, {"measurement": "%Activity", "setting": "HDAC1; 4.57E-09 M", "value": 75.41, "unit": "%"}, {"measurement": "%Activity", "setting": "HDAC1; 5.08E-10 M", "value": 94.78, "unit": "%"}, {"measurement": "HILLSLOPE", "setting": "HDAC1; curve fit", "value": "−0.8597"}, {"measurement": "%Activity", "setting": "HDAC8; 1.00E-05 M", "value": 1.00, "unit": "%"}, {"measurement": "%Activity", "setting": "HDAC8; 1.11E-06 M", "value": 39.71, "unit": "%"}, {"measurement": "%Activity", "setting": "HDAC8; 1.23E-07 M", "value": 25.34, "unit": "%"}, {"measurement": "%Activity", "setting": "HDAC8; 1.37E-08 M", "value": 113.46, "unit": "%"}, {"measurement": "%Activity", "setting": "HDAC8; 1.52E-09 M", "value": 106.69, "unit": "%"}, {"measurement": "%Activity", "setting": "HDAC8; 3.33E-06 M", "value": 18.40, "unit": "%"}, {"measurement": "%Activity", "setting": "HDAC8; 3.70E-07 M", "value": 55.93, "unit": "%"}, {"measurement": "%Activity", "setting": "HDAC8; 4.12E-08 M", "value": 106.11, "unit": "%"}, {"measurement": "%Activity", "setting": "HDAC8; 4.57E-09 M", "value": 100.99, "unit": "%"}, {"measurement": "%Activity", "setting": "HDAC8; 5.08E-10 M", "value": 97.81, "unit": "%"}, {"measurement": "%Activity", "setting": "HDAC4; 1.00E-05 M", "value": 38.73, "unit": "%"}, {"measurement": "%Activity", "setting": "HDAC4; 1.11E-06 M", "value": 96.69, "unit": "%"}, {"measurement": "%Activity", "setting": "HDAC4; 1.23E-07 M", "value": 104.67, "unit": "%"}, {"measurement": "%Activity", "setting": "HDAC4; 1.37E-08 M", "value": 103.45, "unit": "%"}, {"measurement": "%Activity", "setting": "HDAC4; 1.52E-09 M", "value": 114.32, "unit": "%"}, {"measurement": "%Activity", "setting": "HDAC4; 3.33E-06 M", "value": 66.93, "unit": "%"}, {"measurement": "%Activity", "setting": "HDAC4; 4.12E-08 M", "value": 107.27, "unit": "%"}, {"measurement": "%Activity", "setting": "HDAC4; 4.57E-09 M", "value": 111.57, "unit": "%"}, {"measurement": "%Activity", "setting": "HDAC4; 5.08E-10 M", "value": 111.20, "unit": "%"}]}, {"compound": "O=C(NCC1(c2nc(-c3ccccc3)cs2)CCOCC1)c1cccc(-c2noc(C(F)(F)F)n2)c1", "note": "[TMP269]", "values": [{"measurement": "%Activity", "setting": "HDAC9; 1.00E-05 M", "value": "−0.05", "unit": "%"}, {"measurement": "%Activity", "setting": "HDAC9; 1.11E-06 M", "value": 2.96, "unit": "%"}, {"measurement": "%Activity", "setting": "HDAC9; 1.23E-07 M", "value": 14.71, "unit": "%"}, {"measurement": "%Activity", "setting": "HDAC9; 1.37E-08 M", "value": 68.95, "unit": "%"}, {"measurement": "%Activity", "setting": "HDAC9; 1.52E-09 M", "value": 103.85, "unit": "%"}, {"measurement": "%Activity", "setting": "HDAC9; 3.33E-06 M", "value": 0.58, "unit": "%"}, {"measurement": "%Activity", "setting": "HDAC9; 3.70E-07 M", "value": 5.79, "unit": "%"}, {"measurement": "%Activity", "setting": "HDAC9; 4.12E-08 M", "value": 41.39, "unit": "%"}, {"measurement": "%Activity", "setting": "HDAC9; 4.57E-09 M", "value": 91.40, "unit": "%"}, {"measurement": "%Activity", "setting": "HDAC9; 5.08E-10 M", "value": 106.05, "unit": "%"}, {"measurement": "HILLSLOPE", "setting": "HDAC9; curve fit", "value": "−1.036"}, {"measurement": "%Activity", "setting": "HDAC5; 1.00E-05 M", "value": 2.95, "unit": "%"}, {"measurement": "%Activity", "setting": "HDAC5; 1.11E-06 M", "value": 17.13, "unit": "%"}, {"measurement": "%Activity", "setting": "HDAC5; 1.23E-07 M", "value": 73.56, "unit": "%"}, {"measurement": "%Activity", "setting": "HDAC5; 1.37E-08 M", "value": 101.76, "unit": "%"}, {"measurement": "%Activity", "setting": "HDAC5; 1.52E-09 M", "value": 105.35, "unit": "%"}, {"measurement": "%Activity", "setting": "HDAC5; 3.33E-06 M", "value": 4.93, "unit": "%"}, {"measurement": "%Activity", "setting": "HDAC5; 3.70E-07 M", "value": 44.58, "unit": "%"}, {"measurement": "%Activity", "setting": "HDAC5; 4.12E-08 M", "value": 91.82, "unit": "%"}, {"measurement": "%Activity", "setting": "HDAC5; 4.57E-09 M", "value": 106.69, "unit": "%"}, {"measurement": "%Activity", "setting": "HDAC5; 5.08E-10 M", "value": 112.07, "unit": "%"}, {"measurement": "HILLSLOPE", "setting": "HDAC5; curve fit", "value": "−1.023"}]}]}
